Molecules are shown by their SMILES. Read-outs that look alike come from different tables or passages of the source. Where only a bound is given, the exact number is not on record here.

In this test the test system is unwashed human platelets. Briefly: Prevention of the aggregation of human platelets (plasma rich in platelets). Type of test: cell-based. As to conditions: Platelet, read-out: I 50 (50% inhibition of platelet aggregation). As for the experimental part:
The studies were carried out with platelets in their natural surroundings (plasma rich in platelets). The inhibiting agent was tested in the presence of four types of aggregating agents (ADP, adrenalin, collagen, arachidonic acid) at various concentrations.
For each case, a dose-response curve was established.

Turning to `Clc1ccccc1CN1CCc2sccc2C1` [Ticlopidine, reference compound], the IC50 by setting is: (ADP 1.25μM/l) 10 µM; (ADP 2.5μM/l) 50 µM; (adrenalin 1μM/l) 37 µM; (adrenalin 5μM/l) 52 µM; (collagen 50μg/ml) greater than 100 µM.
